Target: T1, NK1 receptor (Meriones unguiculatus, UniProt Q5DUB1)
T1 construct: centrally NK1 receptor mediated foot-tapping response was examined in the gerbil; from tissue; host or cells: whole animal (gerbil), central NK1 receptors, i.c.v. agonist
Assay: [Sar9,Met(O2)11]substance P-induced hind foot tapping in the gerbil
Type: in vivo
Conditions: i.c.v., 1-100 nmol/animal
Description: FIG. 3. […] The duration of foot tapping (sec) was recorded for 5 minutes immediately following recovery of the animals righting reflex.
Gerbils were anaesthetized with isoflurane, and an incision was made to expose the skull. […] Animals were placed individually into observation boxes, and duration of hind foot tapping was recorded for 5 minutes immediately following recovery of the animals' righting reflex.

Chains of the proteins cited; added tags and fusions are not shown.
UniProt Q5DUB1, whole entry: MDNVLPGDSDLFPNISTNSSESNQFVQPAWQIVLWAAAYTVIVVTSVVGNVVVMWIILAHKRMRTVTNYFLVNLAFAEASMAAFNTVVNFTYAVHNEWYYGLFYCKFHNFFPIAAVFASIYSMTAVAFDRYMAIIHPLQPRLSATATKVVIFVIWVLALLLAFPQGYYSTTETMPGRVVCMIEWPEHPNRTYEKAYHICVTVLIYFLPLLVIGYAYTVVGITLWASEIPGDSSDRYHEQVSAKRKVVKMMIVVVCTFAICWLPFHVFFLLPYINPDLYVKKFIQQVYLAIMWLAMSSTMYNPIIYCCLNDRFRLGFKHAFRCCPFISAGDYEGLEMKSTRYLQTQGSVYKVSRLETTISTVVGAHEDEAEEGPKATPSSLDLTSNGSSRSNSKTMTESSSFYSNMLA

[Sar^9, Met(O2)^11 ]substance P
MED for increase of foot tapping: 10 nmol

— US5998435A, “Use of a tachykinin antagonist for the manufacture of a medicament for the treatment of emesis” (priority 1998, dated 1999)
